pIC50: −log10 of the molar value.
Tests used:
Mu-type opioid receptor = Mu-type opioid receptor (Cavia porcellus, UniProt P97266)
[1] = molecular target: Kappa-type opioid receptor (Cavia porcellus, UniProt P41144); assay: Displacement of 0.5 nM [3H]bremazocine from guinea pig brain membrane opioid receptor kappa with 100 nM DAGO and 100 nM DPDPE
[2] = molecular target: Opioid receptors; mu/kappa/delta; assay: Inhibition of 0.5 nM [3H]bremazocine binding to guinea pig brain membrane opioid receptors

Sequences of proteins named here, by UniProt entry; tags and fusion partners are left off. A change or cut given only in a name is not applied to a line headed by its entry.
UniProt P97266, whole entry, looked up: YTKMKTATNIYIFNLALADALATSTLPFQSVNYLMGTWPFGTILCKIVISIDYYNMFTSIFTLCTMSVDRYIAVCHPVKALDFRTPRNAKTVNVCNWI
UniProt P41144: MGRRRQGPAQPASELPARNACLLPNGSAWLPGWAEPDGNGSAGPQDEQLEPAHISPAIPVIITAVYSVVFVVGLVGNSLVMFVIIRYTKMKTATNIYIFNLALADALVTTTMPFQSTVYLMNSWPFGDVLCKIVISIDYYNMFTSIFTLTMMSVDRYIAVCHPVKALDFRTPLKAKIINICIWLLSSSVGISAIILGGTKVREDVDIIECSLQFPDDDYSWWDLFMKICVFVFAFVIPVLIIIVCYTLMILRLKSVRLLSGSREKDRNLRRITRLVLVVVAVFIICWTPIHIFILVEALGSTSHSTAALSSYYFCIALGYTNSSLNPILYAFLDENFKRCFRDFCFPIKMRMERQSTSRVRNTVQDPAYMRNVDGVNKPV

Compound	pIC50 (Mu-type opioid receptor)	pIC50 [1]	pIC50 [2]
C=C(CO[C@@H]1CC[C@@]2(O)[C@H]3Cc4ccc(O)c5c4[C@@]2(CCN3CC2CC2)[C@H]1O5)C(=O)OC [listing 1 of 2 here]	8.60	7.68	–
C=C(CO[C@@H]1CC[C@@]2(O)[C@H]3Cc4ccc(O)c5c4[C@@]2(CCN3CC2CC2)[C@H]1O5)C(=O)OC [listing 2 of 2 here]	–	–	7.96
